Measurements as given in ChEMBL document CHEMBL1123735 (J Med Chem, 1987).

Experiments:
Cavia porcellus [1] = species on record: Cavia porcellus; experiment: (§1) Antimuscarinic activity was assayed for its ability to block the acetyl-choline induced contraction of the guinea pig ileum; type: functional
Cavia porcellus [2] = species on record: Cavia porcellus; experiment: as §1

Compound `CCN(CC)CCOC(=O)C(O)(c1ccccc1)c1ccccc1` [BENACTYZINE] has a pA2 (Cavia porcellus [1]) of 8.2 and a Kb (Cavia porcellus [2]) of 6.5 nM.
